For one molecule, Activity results are on record in ChEMBL document CHEMBL4828766, “Functional Mixture-Based Positional Scan Identifies a Library of Antagonist Tetrapeptide Sequences (LAtTeS) with Nanomolar Potency for the Melanocortin-4 Receptor and Equipotent with the Endogenous AGRP(86-132) Antagonist” (J Med Chem, 2021).

Chains of the proteins cited; added tags and fusions are not shown. Lines headed by an entry give the natural chain unless they say otherwise; changes in a name come on top.
UniProt Q01727: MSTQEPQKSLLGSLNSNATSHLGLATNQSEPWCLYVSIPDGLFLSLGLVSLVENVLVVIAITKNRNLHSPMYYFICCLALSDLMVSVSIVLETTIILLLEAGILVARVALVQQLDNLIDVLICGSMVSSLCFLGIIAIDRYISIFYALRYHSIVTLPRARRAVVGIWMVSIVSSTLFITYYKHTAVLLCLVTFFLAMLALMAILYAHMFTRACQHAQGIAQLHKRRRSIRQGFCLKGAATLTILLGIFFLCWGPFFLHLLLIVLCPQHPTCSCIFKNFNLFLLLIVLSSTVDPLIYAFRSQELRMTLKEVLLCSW
UniProt P56450, whole entry: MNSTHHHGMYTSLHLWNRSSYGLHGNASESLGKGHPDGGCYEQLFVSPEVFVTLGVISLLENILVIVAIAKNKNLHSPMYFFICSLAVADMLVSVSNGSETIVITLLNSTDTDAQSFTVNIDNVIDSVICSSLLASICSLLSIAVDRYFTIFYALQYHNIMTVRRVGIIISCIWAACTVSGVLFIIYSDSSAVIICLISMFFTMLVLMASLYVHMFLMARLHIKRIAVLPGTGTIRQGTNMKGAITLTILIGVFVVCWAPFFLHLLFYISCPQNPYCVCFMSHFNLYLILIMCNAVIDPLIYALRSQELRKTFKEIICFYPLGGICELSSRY

Assay [1] addresses Melanocyte-stimulating hormone receptor (Mus musculus) (UniProt Q01727). Description: Agonist activity at mouse MC1R expressed in HEK293 cells assessed as induction of cAMP level at 100 uM incubated for 2 hr by alphaScreen assay relative to NDP-MSH. It counts as functional, cell-based. On the technique in general: Cyclic AMP is a second messenger, typically raised through Gs and lowered through Gi signalling.

The target in assay [2] is Melanocortin receptor 4 (Mus musculus) (UniProt P56450). Description: Agonist activity at mouse MC4R expressed in HEK293 cells assessed as induction of cAMP level at 100 uM incubated for 2 hr by alphaScreen assay relative to control. The format is functional, cell-based.

As to `CC(=O)N[C@H](Cc1ccc(I)cc1)C(=O)N[C@@H](CCCNC(=N)N)C(=O)N[C@@H](Cc1ccc2ccccc2c1)C(=O)N[C@@H](CCCNC(=N)N)C(N)=O`, the Activity in assay [1] and in assay [2] was 25% in each case.
